Source: PMC10009755, “Discovery and Characterization of BAY-805, a Potent and Selective Inhibitor of Ubiquitin-Specific Protease USP21” (Journal of Medicinal Chemistry, 2023)

Protein sequences, listed by entry. Tags and fused reporters are not part of them. Lines headed by an entry give the natural chain unless they say otherwise; changes in a name come on top. Residues count along the entry.
UniProt Q93008, 1551-1970: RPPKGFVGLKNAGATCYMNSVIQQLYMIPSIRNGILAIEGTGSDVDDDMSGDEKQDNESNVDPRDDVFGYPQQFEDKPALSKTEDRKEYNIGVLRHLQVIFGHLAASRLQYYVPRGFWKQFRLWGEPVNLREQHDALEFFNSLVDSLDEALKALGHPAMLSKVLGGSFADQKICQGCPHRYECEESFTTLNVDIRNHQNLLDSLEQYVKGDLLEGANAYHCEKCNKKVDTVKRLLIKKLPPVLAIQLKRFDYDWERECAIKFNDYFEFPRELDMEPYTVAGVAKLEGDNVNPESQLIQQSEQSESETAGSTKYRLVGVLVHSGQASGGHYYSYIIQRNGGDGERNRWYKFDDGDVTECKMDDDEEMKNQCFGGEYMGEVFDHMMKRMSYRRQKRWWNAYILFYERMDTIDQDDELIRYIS
UniProt Q16873: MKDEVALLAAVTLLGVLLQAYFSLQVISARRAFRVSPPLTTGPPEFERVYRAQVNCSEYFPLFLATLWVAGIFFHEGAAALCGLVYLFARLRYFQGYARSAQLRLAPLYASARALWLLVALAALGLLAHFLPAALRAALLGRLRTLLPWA
UniProt Q07912: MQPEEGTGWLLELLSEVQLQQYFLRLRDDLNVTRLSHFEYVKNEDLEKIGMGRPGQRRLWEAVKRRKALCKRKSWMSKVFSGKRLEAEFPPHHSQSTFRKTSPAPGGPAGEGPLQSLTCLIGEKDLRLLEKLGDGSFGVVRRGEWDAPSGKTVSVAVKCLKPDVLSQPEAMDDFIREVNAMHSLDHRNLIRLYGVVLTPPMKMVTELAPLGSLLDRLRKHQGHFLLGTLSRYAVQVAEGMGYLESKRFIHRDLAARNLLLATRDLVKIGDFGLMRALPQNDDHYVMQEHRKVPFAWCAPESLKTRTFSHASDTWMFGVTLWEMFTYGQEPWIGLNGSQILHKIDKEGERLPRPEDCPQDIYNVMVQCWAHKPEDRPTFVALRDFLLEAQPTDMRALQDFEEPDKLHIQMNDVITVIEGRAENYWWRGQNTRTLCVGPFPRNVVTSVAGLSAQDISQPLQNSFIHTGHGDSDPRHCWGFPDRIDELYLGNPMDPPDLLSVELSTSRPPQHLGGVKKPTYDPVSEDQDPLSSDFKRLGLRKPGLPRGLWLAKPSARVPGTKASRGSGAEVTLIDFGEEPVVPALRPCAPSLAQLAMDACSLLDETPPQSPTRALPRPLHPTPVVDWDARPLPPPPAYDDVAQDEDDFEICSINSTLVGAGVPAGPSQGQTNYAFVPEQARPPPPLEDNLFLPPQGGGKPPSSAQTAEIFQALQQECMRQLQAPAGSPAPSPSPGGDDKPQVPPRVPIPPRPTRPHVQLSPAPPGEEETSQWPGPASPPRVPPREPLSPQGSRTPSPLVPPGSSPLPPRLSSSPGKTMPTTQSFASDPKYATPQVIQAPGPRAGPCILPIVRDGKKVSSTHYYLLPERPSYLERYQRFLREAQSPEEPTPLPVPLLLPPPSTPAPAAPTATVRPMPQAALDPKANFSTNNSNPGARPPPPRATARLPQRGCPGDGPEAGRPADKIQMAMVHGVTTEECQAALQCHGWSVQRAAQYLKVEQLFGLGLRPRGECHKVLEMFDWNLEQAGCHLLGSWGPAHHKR
UniProt Q15375, 28-998: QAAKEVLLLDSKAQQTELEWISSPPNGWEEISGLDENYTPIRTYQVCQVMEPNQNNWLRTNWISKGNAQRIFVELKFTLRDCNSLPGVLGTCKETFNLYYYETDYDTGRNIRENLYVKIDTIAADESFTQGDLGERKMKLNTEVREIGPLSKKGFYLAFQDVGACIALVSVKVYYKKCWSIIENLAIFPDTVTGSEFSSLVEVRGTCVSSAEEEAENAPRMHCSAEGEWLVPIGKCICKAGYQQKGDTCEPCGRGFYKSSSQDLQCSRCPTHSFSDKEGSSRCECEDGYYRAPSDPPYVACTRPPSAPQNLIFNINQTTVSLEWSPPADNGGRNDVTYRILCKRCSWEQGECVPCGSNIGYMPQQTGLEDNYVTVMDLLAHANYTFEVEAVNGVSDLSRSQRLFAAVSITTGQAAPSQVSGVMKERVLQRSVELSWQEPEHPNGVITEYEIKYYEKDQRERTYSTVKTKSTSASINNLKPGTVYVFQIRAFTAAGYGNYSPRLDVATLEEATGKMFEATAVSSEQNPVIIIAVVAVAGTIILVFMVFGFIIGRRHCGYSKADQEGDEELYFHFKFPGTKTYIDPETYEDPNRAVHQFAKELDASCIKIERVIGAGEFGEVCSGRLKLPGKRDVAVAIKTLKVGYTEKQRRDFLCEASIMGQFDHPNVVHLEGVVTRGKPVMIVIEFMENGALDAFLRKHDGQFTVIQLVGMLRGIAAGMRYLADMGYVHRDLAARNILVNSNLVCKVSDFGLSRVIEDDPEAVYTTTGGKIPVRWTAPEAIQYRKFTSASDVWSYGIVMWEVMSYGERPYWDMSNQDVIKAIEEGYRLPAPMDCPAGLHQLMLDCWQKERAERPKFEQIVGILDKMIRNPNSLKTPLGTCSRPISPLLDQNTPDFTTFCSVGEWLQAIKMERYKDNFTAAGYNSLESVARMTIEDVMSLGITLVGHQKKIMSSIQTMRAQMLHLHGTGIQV
UniProt P29323, 19-1055: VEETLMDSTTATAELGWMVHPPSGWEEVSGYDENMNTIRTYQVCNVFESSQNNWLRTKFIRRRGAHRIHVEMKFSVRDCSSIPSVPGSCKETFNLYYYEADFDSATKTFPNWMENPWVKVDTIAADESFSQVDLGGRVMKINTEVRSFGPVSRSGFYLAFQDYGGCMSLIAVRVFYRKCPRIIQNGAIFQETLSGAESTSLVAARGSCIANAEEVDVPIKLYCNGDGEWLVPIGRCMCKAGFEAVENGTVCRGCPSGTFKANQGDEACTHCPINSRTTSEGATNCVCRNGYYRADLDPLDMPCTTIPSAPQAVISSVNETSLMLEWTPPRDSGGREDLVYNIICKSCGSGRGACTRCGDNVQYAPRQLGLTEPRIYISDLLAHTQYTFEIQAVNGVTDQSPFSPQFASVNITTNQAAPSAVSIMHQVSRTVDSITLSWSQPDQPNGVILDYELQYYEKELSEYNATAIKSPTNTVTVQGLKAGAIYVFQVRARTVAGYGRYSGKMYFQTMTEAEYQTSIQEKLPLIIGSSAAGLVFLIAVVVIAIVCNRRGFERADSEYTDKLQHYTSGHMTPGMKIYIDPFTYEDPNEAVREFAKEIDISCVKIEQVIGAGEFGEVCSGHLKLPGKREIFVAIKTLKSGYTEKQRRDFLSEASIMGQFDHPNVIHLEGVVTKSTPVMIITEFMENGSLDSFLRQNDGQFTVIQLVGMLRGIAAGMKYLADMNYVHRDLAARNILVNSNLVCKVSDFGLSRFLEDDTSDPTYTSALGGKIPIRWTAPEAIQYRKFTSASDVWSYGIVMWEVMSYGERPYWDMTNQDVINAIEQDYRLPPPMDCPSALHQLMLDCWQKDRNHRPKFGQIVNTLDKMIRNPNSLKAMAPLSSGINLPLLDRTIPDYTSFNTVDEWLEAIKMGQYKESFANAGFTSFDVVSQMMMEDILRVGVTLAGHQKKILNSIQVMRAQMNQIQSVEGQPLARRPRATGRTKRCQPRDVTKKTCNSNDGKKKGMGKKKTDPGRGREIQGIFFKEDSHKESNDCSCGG
UniProt O75460, 19-977: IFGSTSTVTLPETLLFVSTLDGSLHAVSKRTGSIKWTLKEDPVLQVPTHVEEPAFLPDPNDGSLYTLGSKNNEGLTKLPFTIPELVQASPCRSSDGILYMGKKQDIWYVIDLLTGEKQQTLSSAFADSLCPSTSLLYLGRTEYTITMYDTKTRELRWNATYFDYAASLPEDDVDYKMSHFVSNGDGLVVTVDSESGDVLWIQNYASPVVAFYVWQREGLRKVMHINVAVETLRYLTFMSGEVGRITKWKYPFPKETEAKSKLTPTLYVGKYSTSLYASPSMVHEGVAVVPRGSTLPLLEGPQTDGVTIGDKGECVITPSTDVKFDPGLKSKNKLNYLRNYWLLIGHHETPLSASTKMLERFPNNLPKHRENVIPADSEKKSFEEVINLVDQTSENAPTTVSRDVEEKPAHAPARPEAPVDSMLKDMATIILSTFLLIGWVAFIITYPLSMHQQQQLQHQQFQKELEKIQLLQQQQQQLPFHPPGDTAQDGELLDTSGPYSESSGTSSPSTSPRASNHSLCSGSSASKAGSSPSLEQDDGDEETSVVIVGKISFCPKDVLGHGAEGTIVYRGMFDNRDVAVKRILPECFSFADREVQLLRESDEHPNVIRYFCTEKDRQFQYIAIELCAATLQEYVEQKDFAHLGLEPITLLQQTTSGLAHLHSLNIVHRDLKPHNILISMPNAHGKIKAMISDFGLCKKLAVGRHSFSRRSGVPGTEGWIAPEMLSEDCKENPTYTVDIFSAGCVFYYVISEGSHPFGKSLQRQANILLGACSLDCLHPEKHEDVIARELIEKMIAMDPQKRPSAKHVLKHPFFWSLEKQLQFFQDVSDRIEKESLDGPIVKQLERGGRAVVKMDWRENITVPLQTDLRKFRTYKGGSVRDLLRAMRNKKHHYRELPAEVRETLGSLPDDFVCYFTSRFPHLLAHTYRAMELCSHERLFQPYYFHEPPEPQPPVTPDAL
UniProt P23458: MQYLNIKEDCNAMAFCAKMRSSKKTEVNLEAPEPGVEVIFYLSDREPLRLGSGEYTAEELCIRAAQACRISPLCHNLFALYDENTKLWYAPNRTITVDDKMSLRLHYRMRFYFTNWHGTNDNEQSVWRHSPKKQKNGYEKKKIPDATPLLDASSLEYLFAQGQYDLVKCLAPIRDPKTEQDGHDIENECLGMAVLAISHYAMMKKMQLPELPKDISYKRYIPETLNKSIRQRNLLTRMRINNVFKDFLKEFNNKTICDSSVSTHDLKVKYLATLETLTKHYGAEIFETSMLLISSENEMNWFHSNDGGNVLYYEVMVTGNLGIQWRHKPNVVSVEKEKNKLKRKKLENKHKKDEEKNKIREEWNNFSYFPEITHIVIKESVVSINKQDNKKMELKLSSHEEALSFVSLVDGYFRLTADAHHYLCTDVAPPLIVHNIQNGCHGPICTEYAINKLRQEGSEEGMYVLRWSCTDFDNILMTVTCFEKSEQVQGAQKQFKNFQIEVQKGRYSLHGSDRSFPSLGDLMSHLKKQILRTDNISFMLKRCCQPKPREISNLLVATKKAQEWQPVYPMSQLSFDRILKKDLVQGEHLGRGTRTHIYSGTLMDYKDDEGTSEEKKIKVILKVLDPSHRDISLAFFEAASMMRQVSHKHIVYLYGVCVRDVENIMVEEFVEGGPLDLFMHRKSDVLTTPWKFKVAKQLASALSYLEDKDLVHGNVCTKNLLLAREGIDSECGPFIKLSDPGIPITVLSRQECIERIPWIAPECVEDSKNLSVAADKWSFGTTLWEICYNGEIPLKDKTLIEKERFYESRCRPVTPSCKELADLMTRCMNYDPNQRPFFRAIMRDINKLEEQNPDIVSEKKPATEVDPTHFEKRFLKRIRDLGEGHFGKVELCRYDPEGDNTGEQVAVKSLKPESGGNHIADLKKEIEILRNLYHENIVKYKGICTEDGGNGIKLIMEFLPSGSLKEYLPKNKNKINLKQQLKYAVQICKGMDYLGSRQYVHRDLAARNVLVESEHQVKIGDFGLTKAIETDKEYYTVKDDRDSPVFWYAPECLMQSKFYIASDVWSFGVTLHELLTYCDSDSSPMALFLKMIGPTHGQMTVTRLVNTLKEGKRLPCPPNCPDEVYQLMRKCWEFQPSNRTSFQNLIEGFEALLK
UniProt Q9NRH2: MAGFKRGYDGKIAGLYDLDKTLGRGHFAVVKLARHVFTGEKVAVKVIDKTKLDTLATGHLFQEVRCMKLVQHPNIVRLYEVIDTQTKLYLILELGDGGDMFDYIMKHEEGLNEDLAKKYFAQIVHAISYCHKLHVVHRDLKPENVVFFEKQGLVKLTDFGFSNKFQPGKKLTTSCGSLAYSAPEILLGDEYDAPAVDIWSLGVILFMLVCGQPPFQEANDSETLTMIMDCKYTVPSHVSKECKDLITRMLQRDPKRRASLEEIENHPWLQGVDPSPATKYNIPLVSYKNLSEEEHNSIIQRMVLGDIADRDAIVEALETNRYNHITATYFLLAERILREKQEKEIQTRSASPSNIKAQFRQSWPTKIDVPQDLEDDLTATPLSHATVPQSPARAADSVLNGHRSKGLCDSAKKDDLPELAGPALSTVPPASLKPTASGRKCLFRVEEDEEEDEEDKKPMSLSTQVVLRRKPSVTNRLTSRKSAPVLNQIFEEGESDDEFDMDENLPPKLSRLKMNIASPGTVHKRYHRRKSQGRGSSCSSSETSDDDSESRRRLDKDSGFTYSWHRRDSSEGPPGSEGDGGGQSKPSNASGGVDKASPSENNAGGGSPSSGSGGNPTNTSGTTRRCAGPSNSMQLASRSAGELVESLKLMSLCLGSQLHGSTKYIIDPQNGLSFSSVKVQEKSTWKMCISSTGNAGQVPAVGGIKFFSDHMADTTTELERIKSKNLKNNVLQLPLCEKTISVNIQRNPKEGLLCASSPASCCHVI

Legend:
Assay in all cases: biochemical
[1] = molecular target: USP9X (Homo sapiens, UniProt Q93008); conditions: read-out: Activity (% Control)
[2] = molecular target: USP2 (Homo sapiens, UniProt O75604); conditions: read-out: Activity (% Control)
[3] = molecular target: USP14 (Proteasome-VS @ Kd) (Homo sapiens, UniProt P54578); conditions: read-out: Activity (% Control)
[4] = molecular target: USP15 (Homo sapiens, UniProt Q9Y4E8); conditions: read-out: Activity (% Control)
[5] = molecular target: USP19 (Homo sapiens, UniProt O94966); conditions: read-out: Activity (% Control)
[6] = molecular target: USP36 (Homo sapiens, UniProt Q9P275); conditions: read-out: Activity (% Control)
[7] = molecular target: USP46/UAF1/WDR20 (Homo sapiens, UniProt P62068); conditions: read-out: Activity (% Control)
[8] = molecular target: OTUD6A (Homo sapiens, UniProt Q7L8S5); conditions: read-out: Activity (% Control)
[9] = molecular target: Cyclooxygenase COX-2 (Homo sapiens, UniProt P35354); conditions: read-out: % Inh.
[10] = molecular target: Leukotriene LTC4 Synthase (Homo sapiens, UniProt Q16873); conditions: read-out: % Inh.
[11] = molecular target: Nitric Oxide Synthetase, Inducible (iNOS) (Homo sapiens, UniProt P35228); conditions: read-out: % Inh.
[12] = molecular target: ACK1(h) (Homo sapiens, UniProt Q07912)
[13] = molecular target: ASK1(h) (Homo sapiens, UniProt Q99683)
[14] = molecular target: Aurora-B(h) (Homo sapiens, UniProt Q96GD4)
[15] = molecular target: BrSK1(h) (Homo sapiens, UniProt Q8TDC3)
[16] = molecular target: CDKL3(h) (Homo sapiens, UniProt Q8IVW4)
[17] = molecular target: CDKL4(h) (Homo sapiens, UniProt Q5MAI5)
[18] = molecular target: CK1gamma1(h) (Homo sapiens, UniProt Q9HCP0)
[19] = molecular target: CLK1(h) (Homo sapiens, UniProt P49759)
[20] = molecular target: CLK2(h) (Homo sapiens, UniProt P49760)
[21] = molecular target: DDR2(h) (Homo sapiens, UniProt Q16832)
[22] = molecular target: DMPK(h) (Homo sapiens, UniProt Q09013)
[23] = molecular target: EphA7(h) (Homo sapiens, UniProt Q15375)
[24] = molecular target: EphB2(h) (Homo sapiens, UniProt P29323)
[25] = molecular target: HPK1(h) (Homo sapiens, UniProt Q92918)
[26] = molecular target: IRE1(h) (Homo sapiens, UniProt O75460)
[27] = molecular target: Itk(h) (Homo sapiens, UniProt Q08881)
[28] = molecular target: JAK1(h) (Homo sapiens, UniProt P23458)
[29] = molecular target: LRRK2(h) (Homo sapiens, UniProt Q5S007)
[30] = molecular target: MAPK1(h) (Homo sapiens, UniProt P27361)
[31] = molecular target: Mer(h) (Homo sapiens, UniProt Q12866)
[32] = molecular target: MKK6(h) (Homo sapiens, UniProt P52564)
[33] = molecular target: PAR-1Balpha(h) (Homo sapiens, UniProt Q7KZI7)
[34] = molecular target: PEK(h) (Homo sapiens, UniProt Q9NZJ5)
[35] = molecular target: PhKgamma1(h) (Homo sapiens, UniProt Q16816)
[36] = molecular target: PKCepsilon(h) (Homo sapiens, UniProt Q02156)
[37] = molecular target: Ron(h) (Homo sapiens, UniProt Q04912)
[38] = molecular target: SNRK(h) (Homo sapiens, UniProt Q9NRH2)
[39] = molecular target: TYK2(h) (Homo sapiens, UniProt P29597)
[40] = molecular target: Wee1B(h) (Homo sapiens, UniProt P0C1S8)

CC(C)C[C@H](NC(=O)C1(C(F)(F)F)CCCCC1)C(=O)Nc1nnc(Cc2ccc(C#N)cc2)s1 [Compound 22, CC(C)C[C@H](NC(=O)C1(CCCCC1)C(F)(F)F)C(=O)Nc2nnc(Cc3ccc(cc3)C#N)s2]
remaining activity at 10 µM [1]: 97%
remaining activity at 50 µM [1]: 97%
remaining activity at 1 µM [2]: 100%
remaining activity at 10 µM [2]: 82%
remaining activity at 1 µM [3]: 100%
remaining activity at 10 µM [3]: 112%
remaining activity at 1 µM [4]: 101%
remaining activity at 10 µM [4]: 105%
remaining activity at 1 µM [5]: 93%
remaining activity at 10 µM [5]: 96%
remaining activity at 1 µM [6]: 100%
remaining activity at 10 µM [6]: 95%
remaining activity at 1 µM [7]: 101%
remaining activity at 10 µM [7]: 100%
remaining activity at 1 µM [8]: 99%
remaining activity at 10 µM [8]: 105%
inhibition at 10 µM [9]: 5%
inhibition at 10 µM [10]: 5%
inhibition at 10 µM [11]: 0%
inhibition at 10 µM [12]: -3.45%
inhibition at 10 µM [13]: 2.31%
inhibition at 10 µM [14]: -17.2%
inhibition at 10 µM [15]: 0.09%
inhibition at 10 µM [16]: 0.86%
inhibition at 10 µM [17]: -4.09%
inhibition at 10 µM [18]: -1.52%
inhibition at 10 µM [19]: 1.92%
inhibition at 10 µM [20]: -11.5%
inhibition at 10 µM [21]: -7.41%
inhibition at 10 µM [22]: -0.97%
inhibition at 10 µM [23]: 4.64%
inhibition at 10 µM [24]: -7.93%
inhibition at 10 µM [25]: 0.4%
inhibition at 10 µM [26]: -7.86%
inhibition at 10 µM [27]: -6.13%
inhibition at 10 µM [28]: 1.11%
inhibition at 10 µM [29]: -2.52%
inhibition at 10 µM [30]: -0.7%
inhibition at 10 µM [31]: -0.22%
inhibition at 10 µM [32]: -8.15%
inhibition at 10 µM [33]: 2.65%
inhibition at 10 µM [34]: 1.95%
inhibition at 10 µM [35]: 6.48%
inhibition at 10 µM [36]: -0.61%
inhibition at 10 µM [37]: -5.2%
inhibition at 10 µM [38]: 0.06%
inhibition at 10 µM [39]: 10.7%
inhibition at 10 µM [40]: 11.7%

CC(C)C[C@@H](NC(=O)C1(C(F)(F)F)CCCCC1)C(=O)Nc1nnc(Cc2ccc(C#N)cc2)s1 [Compound 21, N-[(1R)-1-[[5-[(4-Cyanophenyl)methyl]-1,3,4-thiadiazol-2-yl]carbamoyl]-3-methyl-butyl]-1-(trifluoromethyl)cyclohexanecarboxamide]
remaining activity at 10 µM [1]: 95%
remaining activity at 50 µM [1]: 97%
remaining activity at 1 µM [2]: 93%
remaining activity at 10 µM [2]: 102%
remaining activity at 1 µM [3]: 103%
remaining activity at 10 µM [3]: 98%
remaining activity at 1 µM [4]: 118%
remaining activity at 10 µM [4]: 113%
remaining activity at 1 µM [5]: 100%
remaining activity at 10 µM [5]: 101%
remaining activity at 1 µM [6]: 110%
remaining activity at 10 µM [6]: 101%
remaining activity at 1 µM [7]: 92%
remaining activity at 10 µM [7]: 97%
remaining activity at 1 µM [8]: 103%
remaining activity at 10 µM [8]: 99%
inhibition at 10 µM [9]: 2%
inhibition at 10 µM [10]: 35%
inhibition at 10 µM [11]: -1%
inhibition at 10 µM [12]: -2.92%
inhibition at 10 µM [13]: 3.07%
inhibition at 10 µM [14]: -14.5%
inhibition at 10 µM [15]: -2.96%
inhibition at 10 µM [16]: -1.25%
inhibition at 10 µM [17]: 0.71%
inhibition at 10 µM [18]: 8.24%
inhibition at 10 µM [19]: 8.38%
inhibition at 10 µM [20]: -2.03%
inhibition at 10 µM [21]: -4.1%
inhibition at 10 µM [22]: 4.5%
inhibition at 10 µM [23]: -1.14%
inhibition at 10 µM [24]: -5.06%
inhibition at 10 µM [25]: 11%
inhibition at 10 µM [26]: -8.46%
inhibition at 10 µM [27]: -2.46%
inhibition at 10 µM [28]: 5.61%
inhibition at 10 µM [29]: -3.23%
inhibition at 10 µM [30]: 6%
inhibition at 10 µM [31]: 5.4%
inhibition at 10 µM [32]: 9.24%
inhibition at 10 µM [33]: -8.98%
inhibition at 10 µM [34]: -0.12%
inhibition at 10 µM [35]: 10.5%
inhibition at 10 µM [36]: 21.1%
inhibition at 10 µM [37]: 2.31%
inhibition at 10 µM [38]: 8.39%
inhibition at 10 µM [39]: 7.17%
inhibition at 10 µM [40]: 7.44%
